High-throughput results as filed in PubChem.
Compounds with a hit are over-represented: about 2.2% of the library has one in this group of screens.
A549 tox – kills or reduces viability of A549 cells in Nrf2 counter-screen. Potency, µM (highest dose often 46 µM), for the others: top-dose activity change, negative = cytotoxicity, hits mostly inhibitors. actives 0.16% (n = 390,000). A549 ARE-Fluc cells, CellTiter-Fluor viability, 18-24 h. AID 504648; note: potency is the fitted concentration of half-maximal effect; % is set by controls: 0 for no effect and ±100 for the full control effect
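A549 ARE-Fluc cells in 5% FBS OPTI-MEM, 5000 cells/well, rested 2 h then exposed to compounds in concentration-response for 18-24 h at 37 °C. Viability by CellTiter-Fluor fluorescence (Ex 405/Em 525) after 30 min; luciferase luminescence (BugLite, 15 min, RT) read afterwards.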
miR-21 FLuc – raises the signal of a miR-21 reporter; HeLa miR-21 FLuc reporter, luciferase, 48 h; Potency, µM (highest dose often 38.3 µM), inactives show at the highest dose reporter change, positive = more light; 340,000 tested, under 10 active; active = well fitted rising curve with a large enough effect; inconclusive = small, poorly fitted or top-dose-only effect; inactive = no such curve, though single readings can be large or run the other way;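 note: % of control where 0% means no effect; miR-21 action dims this reporter so a rising signal means less miR-21 action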
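HeLa cells stably expressing CMV-driven firefly luciferase with a downstream miR-21 binding sequence, endogenously expressing miR-21, were treated with titrations (up to about 40uM final) for 48 hours at 37 degree Celsius. Luciferase luminescence was read after lysis.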
Nrf2 ARE act – activates Nrf2 signaling. AREc32 ARE-luciferase reporter (MCF7-derived line), luminescence, 24 h. Potency, µM (series often up to 46.1 µM), without a hit: top-dose activation, hits mostly activators. AID 624171. actives 0.31% (n = 410,000); note: potency is the fitted concentration of half-maximal effect; % of control where 0% means no effect; nearly all actives have a fitted effect of over 65% in size
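ARE activation measured as luciferase luminescence (Steady-Glo, 30 min RT) in AREc32_Fluc cells after 24 hr compound exposure at 37 deg C, 5% CO2; cells seeded overnight at 1000/well in OPTI-MEM, 5% FBS.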
Nrf2 inh – Nrf2 pathway inhibition; A549 ARE-Fluc reporter, luciferase luminescence, 18-24 h; Potency, µM (top dose mostly 46 µM), for the others: at the highest dose activity change, negative = inhibition, actives largely listed as inhibitors; actives 2.1% (n = 360,000); note: potency is the fitted concentration of half-maximal effect; % is set by controls: 0 for no effect and ±100 for the full control effect; nearly all actives have a fitted effect of over 60% in size
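Reporter: ARE-Fluc in A549. Exposure: 18-24 h, 37 °C, 5% CO2, 5% FBS OPTI-MEM. Readouts: fluorescent cytotoxicity (CellTiter-Fluor), then luminescent Nrf2 signal after BugLite.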
B2AR arrestin – beta2AR (human) beta-arrestin recruitment activity; P07550; Potency, µM (titrated, usually from 46.1 µM), for inactives: top-dose activation, actives largely listed as activators; AID 492947; beta-arrestin recruitment to beta2AR, cell-based reporter; actives 0.02% (n = 330,000);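 note: potency is the fitted concentration of half-maximal effect; 0% = DMSO controls and full agonism = EC100 isoproterenol or metaproterenol; nearly all actives have a fitted effect of over 65% in size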
* marks the source's active call; other numbers are inactive results; ? = inconclusive; nt = no result; [ ] = remark or other dose. Unless noted, calls come from the whole dose curve; as a rule, active = well fitted curve in the direction sought with a large enough effect; inconclusive = small, poorly fitted or top-dose-only effect, or another doubt; inactive = no such curve, though single readings can be large; an effect the other way counts as inactive or inconclusive.

| cpd | molecule | A549 tox | miR-21 FLuc | Nrf2 ARE act |
| --- | --- | --- | --- | --- |
| 1 | COc1cccc(S(=O)(=O)NCc2ccc(C(=O)Nc3ccc(Cl)c(Cl)c3)cc2)c1 | ? | 5% | 3% |
| 2 | O=C(Nc1ccc(Cl)c(Cl)c1)c1cccc(S(=O)(=O)NCc2cccnc2)c1 | -23% | 21% | 5% |
| 3 | CCOc1ccc(CNC(=O)Cn2cc3c(n2)-c2c(oc(C(=O)N4CCOCC4)c2C)CC3)cc1 | 6% | 24% | 3% |
| 4 | COc1ccc(CCNC(=S)N2CCC(C(=O)c3ccc(F)cc3)CC2)cc1OC | 1% | 27% | 6% |
| 5 | COc1ccc(C(=O)C2CCN(C(=S)NCCc3ccc(OC)c(OC)c3)CC2)cc1 | -24% | 13% | 7% |
| 6 | COCCNC(=S)N1CCC(C(=O)c2ccc(F)cc2)CC1 | 11% | nt | 3% |
| 7 | CCS(=O)(=O)N1CCc2cc(C(=O)NCCc3ccc(OC)c(OC)c3)ccc21 | ? | 2% | 1% |
| 8 | CCn1c(SCc2ccccc2C)nc(=O)c2c(C(=O)OC)cc(C3CC3)nc21 | 16% | -3% | -3% |
| 9 | O=c1c(-c2ccco2)[n+]([O-])c2ccccc2n1OCc1ccccc1 | 0% | -3% | 3.2µM* |
| 10 | O=c1c(-c2ccco2)[n+]([O-])c2ccccc2n1OCc1c(F)cccc1F | 1% | -1% | 0.71µM* |
| 11 | Cc1cccc(C(=O)NC(=O)Nc2ccc(-n3nc(C(F)(F)F)cc3C(F)(F)F)cc2)c1 | 3% | 0% | -1% |
| 12 | CCc1noc(C)c1C(=O)Oc1ccc(N(C)S(=O)(=O)c2ccccc2)cc1 | -9% | nt | 3% |

| cpd | Nrf2 inh | B2AR arrestin |
| --- | --- | --- |
| 1 | nt | -1% |
| 2 | 15µM* | 0% |
| 3 | ? | nt |
| 4 | 16µM* | 0% |
| 5 | 16µM* | 1% |
| 6 | ? | nt |
| 7 | 18µM* | nt |
| 8 | nt | nt |
| 9 | 14% | 0% |
| 10 | 11% | -1% |
| 11 | 6% | nt |
| 12 | 16µM* | 0% |

Going on with the list.
| cpd | molecule | A549 tox | miR-21 FLuc | Nrf2 ARE act |
| --- | --- | --- | --- | --- |
| 13 | C=C1C(=O)O[C@H]2C[C@]3(C)C([C@@H](OC(=O)/C(C)=C/C)[C@H]12)[C@](C)(O)CC[C@H]3O (some centres undefined) | -24% | 16% | 7% |
| 14 | C=C1C(=O)O[C@H]2[C@H]1[C@H](OC(=O)/C(C)=C\C)C[C@]1(CO1)[C@@H]1[C@H](OC(C)=O)C=C(C)[C@]21O | -5% | nt | 16µM* |
| 15 | CCCCCn1c(=O)[nH]c2cc(C(=O)Nc3ccc(OC)cc3)ccc2c1=O | 6% | 5% | 0% |
| 16 | CCn1c(=O)[nH]c2cc(C(=O)Nc3cc(C)cc(C)c3)ccc2c1=O | 11% | 4% | 0% |
| 17 | CC(=O)Nc1ccc(N=Nc2ccccc2)cc1[N+](=O)[O-] | 0% | nt | 7.9µM* |
| 18 | CCCSCCCNC(=O)C1CCCN(c2nn3cc(-c4ccc(OC)cc4)nc3s2)C1 (centres undefined) | ? | 25% | -1% |
| 19 | CC1CCN(C(=O)CSc2nc3ccccc3nc2Cc2ccccc2)CC1 | -7% | 6% | 1% |
| 20 | C=CCn1c(C)cc(-c2csc(NC(=O)CCc3nc4ccccc4c(=O)[nH]3)n2)c1C | 2% | nt | 0% |
| 21 | O=C(CCc1nc2ccccc2c(=O)[nH]1)Nc1nc(-c2cccs2)cs1 | -1% | nt | 10µM* |
| 22 | Cc1ccc(NC(=O)NCc2c(-n3cccc3)sc3c2CCCC3)c(Cl)c1 | 1% | -6% | -1% |
| 23 | O=C(CCN1C(=O)/C(=C/c2ccccc2)SC1=S)N1CCCCCC1 | ? | 0% | ? |
| 24 | CN1CCN(C(=O)CCN2C(=O)/C(=C\c3ccc(Cl)cc3Cl)SC2=S)CC1 | 7.3µM* | 6% | 13µM* |

| cpd | Nrf2 inh | B2AR arrestin |
| --- | --- | --- |
| 13 | ? | 0% |
| 14 | -4% | nt |
| 15 | 10% | 0% |
| 16 | 16µM* | 0% |
| 17 | ? | nt |
| 18 | ? | nt |
| 19 | nt | nt |
| 20 | -17% | 0% |
| 21 | 2% | 0% |
| 22 | 1% | nt |
| 23 | 21µM* | 0% |
| 24 | ? | -1% |

Next part
| cpd | molecule | A549 tox | miR-21 FLuc | Nrf2 ARE act |
| --- | --- | --- | --- | --- |
| 25 | O=S(=O)(c1ccc2nc(Cl)c(Cl)nc2c1)N1CCN(S(=O)(=O)c2c(F)cccc2F)CC1 | 0% | nt | nt |
| 26 | O=C(Nc1cccc2cccnc12)OCc1ccccc1 | 2% | nt | nt |
| 27 | O=C(Cn1cc(SCc2ccc(C(F)(F)F)cc2)c2ccccc21)N1CCCC1 | -2% | 0% | 3% |
| 28 | CSc1ccc(-c2cc(=O)c3ccccc3o2)cc1 | 9%[1.84 µM] | -45% | 2.8µM* |
| 29 | O=c1cc(-c2ccccc2F)oc2ccccc12 | -6% | -68% | ? |
| 30 | O=c1cc(-c2ccc(F)cc2)oc2ccccc12 | 1% | nt | 11µM* |
| 31 | Cc1ccc(C2CC(=O)Nc3cc4c(cc32)OCCO4)cc1Br (centres undefined) | -4% | 8% | 0% |
| 32 | CO/N=C/c1ccc(N2CCN(C(=O)c3ccc(F)cc3)CC2)c([N+](=O)[O-])c1 | -25% | 14% | 0% |
| 33 | Cc1ccc(NC(=O)CSc2nc(-c3ccco3)nc3cc(=O)[nH]n23)cc1C | 14% | -5% | ? |
| 34 | NS(=O)(=O)Nc1c(Br)cc(Br)c2cccnc12 | 1% | nt | nt |
| 35 | CC1=C(C(=O)NCc2cccc(Cl)c2)C2(CCCCCC2)OC1=O | 15% | 23% | 1% |
| 36 | CCOC(=O)c1ccccc1S(=O)(=O)N1CCN(c2nc(-c3cccs3)nc3ccccc23)CC1 | 7% | nt | nt |

| cpd | Nrf2 inh | B2AR arrestin |
| --- | --- | --- |
| 25 | -13% | nt |
| 26 | 27% | nt |
| 27 | ? | nt |
| 28 | ? | 0% |
| 29 | 19% | -1% |
| 30 | 11% | nt |
| 31 | 18µM* | nt |
| 32 | 10µM* | 0% |
| 33 | ? | nt |
| 34 | -2% | nt |
| 35 | ? | nt |
| 36 | -4% | nt |

4 of these compounds in a different format.
nr	SMILES	A549 tox	miR-21 FLuc	Nrf2 ARE act	Nrf2 inh	B2AR arrestin
33	Cc1ccc(NC(=O)CSc2nc(-c3ccco3)nc3cc(=O)[nH]n23)cc1C	14%	-5%	?	?	nt
34	NS(=O)(=O)Nc1c(Br)cc(Br)c2cccnc12	1%	nt	nt	-2%	nt
35	CC1=C(C(=O)NCc2cccc(Cl)c2)C2(CCCCCC2)OC1=O	15%	23%	1%	?	nt
36	CCOC(=O)c1ccccc1S(=O)(=O)N1CCN(c2nc(-c3cccs3)nc3ccccc23)CC1	7%	nt	nt	-4%	nt

(further entries)
| cpd | molecule | A549 tox | miR-21 FLuc | Nrf2 ARE act |
| --- | --- | --- | --- | --- |
| 37 | CC(C)N1C(=O)S/C(=C/c2ccc(Sc3nc4ccccc4[nH]3)o2)C1=O | ? | -7% | 9% |
| 38 | O=[N+]([O-])c1ccccc1/C=N/Nc1nccnc1Cl | 0% | -52% | 6.3µM* |
| 39 | Cc1ccc(C)c(S(=O)(=O)c2nnn3c2nc(Nc2ccc(F)c(Cl)c2)c2sccc23)c1 | ? | -6% | 1% |
| 40 | O=C(Nc1ccn(Cc2c(F)c(F)cc(F)c2F)n1)c1ccc(COc2ccccc2Cl)cc1 | 3%[1.84 µM] | 29% | -1% |
| 41 | O=C(Nc1ccn(Cc2ccccc2F)n1)c1ccc(COc2ccccc2Cl)cc1 | -12% | 26% | 1% |
| 42 | Cc1cc(N2CCOCC2)n2nc(C)c(-c3ccccc3Cl)c2n1 | ? | 8% | 0% |
| 43 | Cc1cc(N2CCOCC2)n2nc(C)c(-c3ccccc3)c2n1 | 1% | -8% | 5% |
| 44 | CCCCc1c(C)c(C#N)c2nc3ccccc3n2c1NCCN(C)C | 6.5µM* | -16% | -1% |
| 45 | CCc1c(C)c(C#N)c2nc3ccccc3n2c1NCCCN(C)C | nt | nt | 1% |
| 46 | O=C(Nc1nnc(-c2ccco2)s1)C1CC1 | -8% | -50% | 11µM* |
| 47 | CC(C)C(=O)Nc1nnc(-c2ccco2)s1 | -7% | -35% | 10µM* |
| 48 | O=C(Nc1nnc(-c2ccco2)s1)C1CCN(S(=O)(=O)c2ccc(Cl)cc2)CC1 | -1% | 5% | 0% |
| 49 | CCOc1cc(C=O)cc(N=Nc2cccc([N+](=O)[O-])c2)c1O | -12% | -4% | 10µM* |
| 50 | CC1(C)CC(=O)C(N=Nc2cccc([N+](=O)[O-])c2)=C(O)C1 | -12% | -49% | 25% |
| 51 | CC1(C)COC(c2cc([N+](=O)[O-])ccc2Cl)=N1 | -2% | -1% | -1% |

| cpd | Nrf2 inh | B2AR arrestin |
| --- | --- | --- |
| 37 | 15µM* | 0% |
| 38 | nt | 0% |
| 39 | ? | nt |
| 40 | 21µM* | -1% |
| 41 | 18µM* | 0% |
| 42 | 16µM* | -1% |
| 43 | nt | 1% |
| 44 | 6.5µM* | -1% |
| 45 | nt | nt |
| 46 | 2% | -1% |
| 47 | 23% | 3% |
| 48 | -15% | 0% |
| 49 | 3% | 0% |
| 50 | -11% | 0% |
| 51 | nt | 0% |

As entered above.
Value of no. 37 under B2AR arrestin: 0%
Value of no. 25 under Nrf2 inh: -13%
Value of no. 49 under Nrf2 ARE act: 10µM*
Value of no. 34 under A549 tox: 1%
